The source of these data is patent publication US20220204581A1, “MONOMERIC PEPTIDE MULTI-AGONIST […] THE GLP1 RECEPTOR AND NPY RECEPTORS” (SYRACUSE UNIVERSITY, published 2022).

For the experiment, the target named is human NPY2-R (human) (UniProt P49146).

As for PYY3-36 (ligand), the EC50 Y2R was found to be 16 nM.
